This is an account of results in paper PMC7190985 (Frontiers in Microbiology, 2020).

Bounds are passed on as bounds.

For this data set, the system named is HeLa cells. As to the kind of experiment: LDH cytotoxicity assay.

The term CC50 denotes the concentration at which the toxic effect on the cells reaches its halfway point.

Consider `O=C1CN(C(=O)c2nccs2)C(c2ccccc2)c2cc(Cl)ccc2N1` (stereo not shown), for which the 50% cytotoxic concentration (CC50) was > 400 µM.
